Results published in patent publication US9765065B2, “Therapeutic substituted cyclopentanes” (ALLERGAN, INC., priority 2007, dated 2017).

Protein sequences, listed by entry. Tags and fused reporters are not part of them.
UniProt P35408, whole entry: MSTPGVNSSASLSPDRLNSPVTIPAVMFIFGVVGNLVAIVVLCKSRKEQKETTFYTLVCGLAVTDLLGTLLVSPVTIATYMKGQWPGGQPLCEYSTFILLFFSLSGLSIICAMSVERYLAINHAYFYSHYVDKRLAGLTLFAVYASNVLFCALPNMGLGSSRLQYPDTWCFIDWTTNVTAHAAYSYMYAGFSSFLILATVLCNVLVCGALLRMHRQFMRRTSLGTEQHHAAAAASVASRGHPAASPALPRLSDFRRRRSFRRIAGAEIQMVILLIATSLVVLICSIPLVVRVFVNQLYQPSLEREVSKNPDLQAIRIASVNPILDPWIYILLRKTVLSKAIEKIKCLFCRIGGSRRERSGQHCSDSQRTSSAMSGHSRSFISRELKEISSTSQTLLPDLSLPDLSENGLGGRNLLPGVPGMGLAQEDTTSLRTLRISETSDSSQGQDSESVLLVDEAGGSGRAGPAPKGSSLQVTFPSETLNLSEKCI
UniProt P43116, whole entry: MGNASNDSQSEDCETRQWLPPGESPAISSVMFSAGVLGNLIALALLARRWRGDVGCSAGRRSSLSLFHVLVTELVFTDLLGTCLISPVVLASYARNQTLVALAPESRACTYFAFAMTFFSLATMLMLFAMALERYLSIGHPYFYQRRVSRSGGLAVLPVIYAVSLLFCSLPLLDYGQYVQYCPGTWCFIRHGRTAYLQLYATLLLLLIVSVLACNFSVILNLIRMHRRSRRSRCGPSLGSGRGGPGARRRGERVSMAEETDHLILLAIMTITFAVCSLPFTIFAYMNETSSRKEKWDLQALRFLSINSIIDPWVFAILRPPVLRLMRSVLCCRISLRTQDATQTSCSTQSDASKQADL
UniProt Q13258, whole entry: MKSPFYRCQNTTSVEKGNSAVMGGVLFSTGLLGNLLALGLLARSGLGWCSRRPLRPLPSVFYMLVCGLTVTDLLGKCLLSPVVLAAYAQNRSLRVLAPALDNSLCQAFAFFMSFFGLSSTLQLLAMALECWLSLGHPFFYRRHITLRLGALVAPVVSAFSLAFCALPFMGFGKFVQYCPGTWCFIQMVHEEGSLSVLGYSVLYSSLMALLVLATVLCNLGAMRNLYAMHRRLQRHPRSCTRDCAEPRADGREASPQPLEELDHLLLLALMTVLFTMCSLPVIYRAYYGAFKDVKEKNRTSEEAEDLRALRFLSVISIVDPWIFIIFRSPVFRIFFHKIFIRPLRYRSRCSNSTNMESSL
UniProt P34995, whole entry: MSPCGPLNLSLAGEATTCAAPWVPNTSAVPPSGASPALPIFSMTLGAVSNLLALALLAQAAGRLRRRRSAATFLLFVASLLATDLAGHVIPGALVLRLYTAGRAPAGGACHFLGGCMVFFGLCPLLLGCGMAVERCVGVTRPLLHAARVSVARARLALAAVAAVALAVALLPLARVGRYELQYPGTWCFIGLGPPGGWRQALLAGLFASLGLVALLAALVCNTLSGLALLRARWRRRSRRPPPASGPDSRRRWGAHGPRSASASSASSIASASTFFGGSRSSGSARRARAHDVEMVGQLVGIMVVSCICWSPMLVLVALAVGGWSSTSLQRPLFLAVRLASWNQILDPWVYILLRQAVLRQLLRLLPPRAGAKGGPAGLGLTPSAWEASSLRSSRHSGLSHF
UniProt P43115, whole entry: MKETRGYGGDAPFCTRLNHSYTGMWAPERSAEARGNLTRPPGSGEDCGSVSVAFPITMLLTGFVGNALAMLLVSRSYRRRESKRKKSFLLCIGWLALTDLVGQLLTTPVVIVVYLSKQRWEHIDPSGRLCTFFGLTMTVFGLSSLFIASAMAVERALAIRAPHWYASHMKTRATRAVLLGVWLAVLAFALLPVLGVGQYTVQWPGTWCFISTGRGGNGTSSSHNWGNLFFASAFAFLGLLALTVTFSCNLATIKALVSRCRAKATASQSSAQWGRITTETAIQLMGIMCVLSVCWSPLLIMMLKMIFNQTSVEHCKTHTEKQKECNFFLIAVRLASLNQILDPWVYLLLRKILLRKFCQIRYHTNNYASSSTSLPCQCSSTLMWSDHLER

Columns and labels:
EP4 [1] = molecular target: T1, EP4 (Homo sapiens, UniProt P35408); test: EP4 flipr; settings: read-out: EP4 data flipr EC50
Source text: (§1) U.S. patent application Ser. No. 11/553,143, filed on Oct. 26, 2006, incorporated by reference herein in its entirety, describes the methods used to obtain the in vitro data in the table below.

EP2 [2] = molecular target: T2, EP2 (Homo sapiens, UniProt P43116); test: EP2 binding Ki; settings: read-out: EP2 data Ki
Source text: as §1

hDP = hDP (Homo sapiens, UniProt Q13258); test: Other receptors hDP; settings: read-out: Other Receptors (EC50 in nM) hDP
Source text: as §1

EP2 [3] = molecular target: T2, EP2; test: EP2 cAMP; settings: read-out: EP2 data cAMP EC50
Source text: as §1

hEP1 = hEP1 (Homo sapiens, UniProt P34995); test: Other receptors hEP1; settings: read-out: Other Receptors (EC50 in nM) hEP1
Source text: as §1

EP2 [4] = molecular target: T2, EP2; test: EP2 flipr; settings: read-out: EP2 data flipr EC50
Source text: as §1

hEP3A = hEP3A (Homo sapiens, UniProt P43115); test: Other receptors hEP3A; settings: read-out: Other Receptors (EC50 in nM) hEP3A
Source text: as §1

EP4 [5] = molecular target: T1, EP4; test: EP4 binding Ki; settings: read-out: EP4 data Ki
Source text: as §1

EC50 (EP4 [1]): 630 nM
Ki (EP2 [2]): 0.5 nM
EC50 (hDP): > 10000 nM
EC50 (EP2 [3]): 0.03 nM
EC50 (hEP1): > 10000 nM
EC50 (EP2 [4]): 221 nM
EC50 (hEP3A): 4030 nM
Ki (EP4 [5]): 114 nM
Structure (SMILES): O=C(O)c1ccc(CCC[C@@H]2[C@@H](C#Cc3ccccc3)[C@H](O)C[C@H]2Cl)s1
